Patent US20100152129A1, “Novel synergistic combination of gemcitabine with P276-00 or P1446A in treatment of cancer” (priority 2008, published 2010)

System: Panc1 cells
Settings: human, 6 h

Question: Which “% Cytotoxicity in Panc1 cells” value does the source give for `CN1CC[C@H](c2c(O)cc(O)c3c(=O)cc(-c4ccccc4Cl)oc23)[C@H](O)C1` [Flavopiridol] here?
Answer: 14.25%
